Measured values: article PMC6271717, “Chemical Composition, Biological and Cytotoxic Activities of Plant Extracts and Compounds Isolated from Ferula lutea” (Molecules, 2014)

Biological target: T1, Porcine pancreatic α-amylase (Sus scrofa, UniProt P00690)
T1 sequence (P00690 16-511): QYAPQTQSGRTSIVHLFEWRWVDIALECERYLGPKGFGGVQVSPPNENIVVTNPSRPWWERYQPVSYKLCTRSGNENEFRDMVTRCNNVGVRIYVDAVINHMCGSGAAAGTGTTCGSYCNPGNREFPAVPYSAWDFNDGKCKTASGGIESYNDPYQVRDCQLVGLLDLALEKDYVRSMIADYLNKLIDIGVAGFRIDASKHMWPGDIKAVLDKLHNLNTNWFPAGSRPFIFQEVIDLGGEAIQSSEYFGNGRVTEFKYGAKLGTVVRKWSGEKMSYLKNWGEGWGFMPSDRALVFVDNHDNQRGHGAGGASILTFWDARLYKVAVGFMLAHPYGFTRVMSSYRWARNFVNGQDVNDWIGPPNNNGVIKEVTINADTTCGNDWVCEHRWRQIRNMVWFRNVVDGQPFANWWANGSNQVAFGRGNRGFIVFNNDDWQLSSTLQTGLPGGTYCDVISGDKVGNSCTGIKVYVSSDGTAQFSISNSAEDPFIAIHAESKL
Test: Antidiabetic activity (α-amylase inhibition)
Format: biochemical
Conditions: at 20 µg/mL; na: not active at 1,000 µg/mL

SMILES: C[C@H]1O[C@H](O[C@H]2[C@H](O)[C@@H](O)[C@@H](O[C@H]3[C@H](O)[C@@H](O)C(O)O[C@@H]3CO)O[C@@H]2CO)[C@H](O)[C@@H](O)[C@@H]1N[C@H]1C=C(CO)[C@@H](O)[C@H](O)[C@H]1O (stereo partly shown) [Acarbose]
- Antidiabetic Activity, percent inhibition: 30%
